The results in this text go back to patent US20170296566A9, “METHODS AND COMPOSITIONS FOR TREATING AND/OR PREVENTING MUCOSITIS” (GLYCOMIMETICS, INC., priority 2013, published 2017).

By UniProt entry, the sequences of proteins in these tests, tags left out. Residues count along the entry.
UniProt P16581, 22-175 limits assumed: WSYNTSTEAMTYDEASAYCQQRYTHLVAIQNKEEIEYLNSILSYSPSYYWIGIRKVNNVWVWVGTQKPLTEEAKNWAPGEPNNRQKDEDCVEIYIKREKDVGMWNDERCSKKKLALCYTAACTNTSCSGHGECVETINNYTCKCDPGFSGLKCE

The target in the assay is E-selectin (Homo sapiens, UniProt P16581). Put plainly: E-selectin competitive binding assay (inhibition of sLe^a binding to immobilized E-selectin/Ig chimera). The following applies: read-out: IC50 (μM), E-Selectin Antagonist Activity, biotinylated sLe^a polyacrylamide with streptavidin/HRP, TMB, 450 nm, tested form: Na salt. On the procedure:
The inhibition assay to screen for and characterize glycomimetic antagonists of E-selectin is a competitive binding assay, which allows the determination of IC50 values. E-selectin/Ig chimera was immobilized in 96 well microtiter plates by incubation at 37° C. for 2 hours. To reduce nonspecific binding, bovine serum albumin was added to each well and incubated at room temperature for 2 hours. The plate was washed and serial dilutions of the test compounds were added to the wells in the presence of conjugates of biotinylated, sLe^a polyacrylamide with streptavidin/horseradish peroxidase and incubated for 2 hours at room temperature.
To determine the amount of sLe^a bound to immobilized E-selectin after washing, the peroxidase substrate, 3,3′,5,5′ tetramethylbenzidine (TMB) was added. After 3 minutes, the enzyme reaction was stopped by the addition of H3PO4, and the absorbance of light at a wavelength of 450 nm was determined.
In addition to reporting the absolute IC50 value as measured above, relative IC50 values (rIC50) are determined by a ratio of the IC50 measured for the test compound to that of an internal control (reference) stated for each assay.

Take `CCC1CC(C(=O)NCCNC(=O)CCOCCOCCOCCOCCOCCOCCOCCOCCOCCOCCOCCOC)CC(OC2OC(CO)C(O)C(OC(CC3CCCCC3)C(=O)O)C2NC(C)=O)C1OC1OC(C)C(O)C(O)C1O` (stereo not shown): the IC50 was below 4 µM.
